Molecules are shown by their SMILES.

By UniProt entry, the sequences of proteins in these tests, tags left out.
UniProt P42336, whole entry: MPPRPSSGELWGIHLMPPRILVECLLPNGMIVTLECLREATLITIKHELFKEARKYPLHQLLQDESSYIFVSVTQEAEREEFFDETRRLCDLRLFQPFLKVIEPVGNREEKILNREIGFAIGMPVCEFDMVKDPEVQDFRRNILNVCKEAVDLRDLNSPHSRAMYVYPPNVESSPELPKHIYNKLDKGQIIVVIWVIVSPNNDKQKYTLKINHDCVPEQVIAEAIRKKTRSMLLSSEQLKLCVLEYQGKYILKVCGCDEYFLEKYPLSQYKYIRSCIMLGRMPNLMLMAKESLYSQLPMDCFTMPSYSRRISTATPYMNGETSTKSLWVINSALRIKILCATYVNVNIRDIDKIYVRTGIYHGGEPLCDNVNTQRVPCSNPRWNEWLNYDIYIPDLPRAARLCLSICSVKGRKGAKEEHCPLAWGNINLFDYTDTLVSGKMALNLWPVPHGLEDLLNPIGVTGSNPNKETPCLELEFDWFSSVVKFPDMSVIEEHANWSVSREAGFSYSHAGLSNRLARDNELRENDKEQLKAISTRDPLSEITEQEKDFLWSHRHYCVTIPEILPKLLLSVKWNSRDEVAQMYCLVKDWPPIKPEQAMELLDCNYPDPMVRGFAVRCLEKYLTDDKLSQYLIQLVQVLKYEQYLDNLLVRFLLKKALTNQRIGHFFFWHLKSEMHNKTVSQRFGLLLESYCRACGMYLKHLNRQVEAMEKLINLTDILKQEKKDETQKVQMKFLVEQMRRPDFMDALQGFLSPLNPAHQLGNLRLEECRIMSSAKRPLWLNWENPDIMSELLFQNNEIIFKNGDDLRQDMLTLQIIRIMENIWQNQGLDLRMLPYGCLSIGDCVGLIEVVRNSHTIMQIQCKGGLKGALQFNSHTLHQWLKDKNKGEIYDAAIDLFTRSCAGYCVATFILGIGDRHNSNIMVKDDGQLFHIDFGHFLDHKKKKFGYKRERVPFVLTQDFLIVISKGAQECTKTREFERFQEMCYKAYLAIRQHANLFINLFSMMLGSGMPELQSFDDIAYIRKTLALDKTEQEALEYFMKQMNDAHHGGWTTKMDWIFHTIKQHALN

For this experiment, the target named is Phosphatidylinositol 4,5-bisphosphate 3-kinase catalytic subunit alpha isoform (Homo sapiens, UniProt P42336). Nature of the experiment: Inhibition of PI3Kalpha expressed in Escherichia coli by microtiter plate-based fluorescence polarization assay.

With `COC(=O)N1CCC(n2ncc3c(N4CCOCC4)nc(-c4ccc(NC(=O)OCCO)cc4)nc32)CC1`, the midpoint of inhibition, the IC50, lay at 0.681 µM.

The values are drawn from ChEMBL document CHEMBL1151963 (J Med Chem, 2009).
